Values quoted from earlier work in patent US11498903B2, “2-(1,1′-biphenyl)-1H-benzodimidazole derivatives and related compounds as apelin and APJ agonists for treating cardiovascular diseases” (BRISTOL-MYERS SQUIBB COMPANY, priority 2017, dated 2022).

Amino acid sequences for entries named in this document (tags omitted). A change or cut given only in a name is not applied to a line headed by its entry.
UniProt P35414: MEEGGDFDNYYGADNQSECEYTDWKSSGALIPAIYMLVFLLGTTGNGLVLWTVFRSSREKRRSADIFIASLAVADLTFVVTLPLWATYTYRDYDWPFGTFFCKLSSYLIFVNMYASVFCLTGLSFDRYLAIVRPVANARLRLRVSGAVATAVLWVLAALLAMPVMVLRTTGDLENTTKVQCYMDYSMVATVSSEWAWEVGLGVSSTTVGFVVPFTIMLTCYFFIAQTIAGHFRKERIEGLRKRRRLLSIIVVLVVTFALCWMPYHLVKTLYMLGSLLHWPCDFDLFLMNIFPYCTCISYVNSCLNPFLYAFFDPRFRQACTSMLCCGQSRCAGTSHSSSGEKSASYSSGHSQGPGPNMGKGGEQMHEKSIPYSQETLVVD

Molecular target: APJ receptor (Homo sapiens, UniProt P35414)
Conditions: reported, Pitkin et al. 2010; cited from earlier work

apelin
binding affinity: sub-nanomolar range
